Several values for one entry are separate records, joined by “and”; a condition that tells them apart may be missing. Identical values can stand only once. Like-named read-outs stand apart in the source and are kept apart here.

By UniProt entry, the sequences of proteins in these tests, tags left out. Residues count along the entry.
UniProt Q16769, 29-361: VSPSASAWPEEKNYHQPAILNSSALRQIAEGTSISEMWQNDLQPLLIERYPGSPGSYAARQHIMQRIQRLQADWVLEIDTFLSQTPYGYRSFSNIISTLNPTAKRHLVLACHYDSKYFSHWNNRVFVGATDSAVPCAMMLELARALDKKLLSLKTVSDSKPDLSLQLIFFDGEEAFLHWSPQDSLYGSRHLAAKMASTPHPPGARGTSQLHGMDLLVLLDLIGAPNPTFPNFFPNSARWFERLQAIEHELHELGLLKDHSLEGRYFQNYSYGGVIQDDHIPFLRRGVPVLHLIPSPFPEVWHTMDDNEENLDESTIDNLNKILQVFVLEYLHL

The values below come from patent US7462599B2, “Use of effectors of glutaminyl and glutamate cyclases” (Probiodrug AG, priority 2003, dated 2008).

The target in the assay is QC (Homo sapiens, UniProt Q16769). As to the kind of experiment: Continuous spectrophotometric assay of substrate conversion, human QC.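 Also: initial rates read at 30 °C in a microplate reader, with activity quantified against an ammonia calibration curve under the same assay conditions.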 In kind it is biochemical. On the set-up: The cDNA of the mature QC starting with codon 38 was fused in frame with the plasmid encoded 6× histidine tag; 6x histidine tag; made in house; host or cells: Pichia pastoris X33 (pPICZαB); also E. coli M15 (pQE-31).

With `NC(=O)CC[C@H](N)C(=O)NCC(=O)O` [H-Gln-Gly-OH], the “Ki*” value (Table 6, for substrate inhibition, n.i. = no inhibition) is given as “n.i”. For the same molecule, the turnover number (kcat) (Table 6, n.r. = not reactive) was 13.2 ± 0.2 s⁻¹.
On to `NC(=O)CC[C@H](N)C(=O)Nc1ccc2ccccc2c1` [H-Gln-βNA], for which the Ki was 1210 ± 70 µM and the Km was 70 ± 3 µM. Also, under “pH 8”, the Ki is 1390 µM and 970 µM; the Km is 76 µM and 63 µM.

As a reminder, the kcat is the number of substrate molecules converted per active site and unit of time at saturation. A word on the Ki: it is a measure of affinity in units of concentration, obtained from inhibition or displacement. Low values mean tighter binding, high ones weaker binding. The Km is the concentration of substrate that gives half-maximal velocity.
